# Assay results as given in publication PMC10882002, “Design of target specific peptide inhibitors using generative deep learning and molecular dynamics simulations” (Nature Communications, 2024).
# The chains behind the UniProt entries cited, without tags or fusion partners. Residues count along the entry.
# UniProt Q9Y6K9, 1-196, species assumed: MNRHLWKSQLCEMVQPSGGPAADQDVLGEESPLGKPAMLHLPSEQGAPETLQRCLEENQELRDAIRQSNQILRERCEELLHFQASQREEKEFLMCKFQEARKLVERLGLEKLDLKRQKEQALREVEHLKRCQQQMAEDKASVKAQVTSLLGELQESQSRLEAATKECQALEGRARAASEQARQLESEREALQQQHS
# UniProt P35222, whole entry: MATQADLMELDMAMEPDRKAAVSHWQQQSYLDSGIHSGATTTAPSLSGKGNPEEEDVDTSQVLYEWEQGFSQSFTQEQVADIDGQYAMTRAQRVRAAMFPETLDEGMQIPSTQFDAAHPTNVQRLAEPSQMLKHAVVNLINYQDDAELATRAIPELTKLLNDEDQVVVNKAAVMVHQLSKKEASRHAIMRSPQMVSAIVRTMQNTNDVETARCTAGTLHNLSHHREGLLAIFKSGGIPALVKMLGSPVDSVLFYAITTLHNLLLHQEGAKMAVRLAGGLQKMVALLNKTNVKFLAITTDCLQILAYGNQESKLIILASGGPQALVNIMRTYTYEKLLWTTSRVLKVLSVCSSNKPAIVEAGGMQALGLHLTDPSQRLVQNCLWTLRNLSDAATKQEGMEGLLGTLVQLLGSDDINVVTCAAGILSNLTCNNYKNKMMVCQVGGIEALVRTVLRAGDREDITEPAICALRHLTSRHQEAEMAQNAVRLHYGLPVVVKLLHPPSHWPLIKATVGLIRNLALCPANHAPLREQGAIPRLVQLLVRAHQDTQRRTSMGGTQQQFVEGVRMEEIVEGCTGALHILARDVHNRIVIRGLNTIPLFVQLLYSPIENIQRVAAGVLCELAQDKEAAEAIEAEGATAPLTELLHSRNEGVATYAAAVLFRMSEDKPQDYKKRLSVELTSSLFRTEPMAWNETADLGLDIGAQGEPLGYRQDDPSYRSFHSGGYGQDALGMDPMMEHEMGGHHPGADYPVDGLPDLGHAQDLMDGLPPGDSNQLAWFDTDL
# Molecular target: T1, NEMO (Homo sapiens, UniProt Q9Y6K9)
# T1 construct: made in house; host or cells: E. coli BL21 (DE3)
# Test: Competitive homogeneous time-resolved fluorescence (HTRF) assay for NEMO binding (GST-NEMO / biotin-IKKβKK/RR)
row,Compound,IC50 [µM]
1,CC(C)C[C@H](NC(=O)[C@H](C)NC(=O)[C@@H](NC(=O)[C@H](CO)NC(=O)[C@H](CO)NC(=O)[C@H](CC(=O)O)NC(=O)[C@H](CC(=O)O)NC(=O)[C@H](CO)NC(=O)[C@H](CCCCN)NC(=O)[C@@H](N)CC(C)C)[C@@H](C)O)C(=O)N[C@@H](CC(=O)O)C(=O)N[C@@H](Cc1c[nH]c2ccccc12)C(=O)N[C@@H](CO)C(=O)N[C@@H](Cc1c[nH]c2ccccc12)C(=O)N[C@@H](CC(C)C)C(=O)N[C@@H](CCC(N)=O)C(=O)N[C@H](C(=O)N[C@@H](CCC(=O)O)C(N)=O)[C@@H](C)O [NBD+12],75

# Molecular target: T2, GST-β-catenin (Homo sapiens, UniProt P35222)
# Test: Competitive fluorescence polarization (FP)-based binding assay against β-catenin
# Set-up: Expression and purification of GST-β-catenin has been reported previously; made in house
row,Compound,fold improvement of β-catenin binding over the parent peptide
1,CC[C@H](C)[C@@H]1NC(=O)[C@@H](NC(=O)[C@H](CCC(=O)O)NC(=O)[C@@H]2CCCN2C(=O)[C@H](Cc2ccc(O)cc2)NC(=O)[C@H](CCC(N)=O)NC(=O)[C@H](CCCCN)NC(=O)[C@H](CCC(=O)O)NC(=O)CNC(=O)[C@@H](N)CCC(=O)O)CC(=O)NCCCC[C@@H](C(=O)N[C@@H](Cc2c[nH]cn2)C(=O)N[C@@H](CC(C)C)C(=O)N[C@@H](CCC(N)=O)C(=O)N[C@@H](CCCNC(=N)N)C(=O)N[C@H](C(=O)N[C@H](C(=O)N[C@@H](CC(C)C)C(N)=O)[C@@H](C)CC)C(C)C)NC(=O)[C@H](CC(=O)O)NC(=O)[C@H](CC(C)C)NC1=O [NAL-9],approximately twofold better than the parent peptide

# Molecular target: T2, GST-β-catenin
# Test: fluorescence polarisation
row,Compound,IC50 [nM]
1,CAL-6 (Fine-tune2) (peptide; other documents disagree on this pair),240
2,NAL-10 (peptide; other documents disagree on this pair),> 3000
3,NAL-9 (peptide; other documents disagree on this pair),84
4,NAL-6 (peptide; other documents disagree on this pair),100
5,CAL-7 (human error) (peptide; other documents disagree on this pair),1400
6,CAL-1 (Fine-tune3) (peptide; other documents disagree on this pair),78
7,CAL-3 (Fine-tune1) (peptide; other documents disagree on this pair),89
8,CAL-4 (Fine-tune2) (peptide; other documents disagree on this pair),70
9,CAL-9 (Fine-tune3) (peptide; other documents disagree on this pair),300
10,CAL-2 (Fine-tune3) (peptide; other documents disagree on this pair),10
11,NAL-4 (peptide; other documents disagree on this pair),170
12,CAL-10 (Fine-tune2) (peptide; other documents disagree on this pair),200

# Molecular target: GST-NEMO (UniProt Q9Y6K9)
# Test: AlphaScreen or HTRF
row,Compound,IC50 [µM]
1,NBD+1 (Fine-tune3) (peptide),> 100
2,NBD+4 (Fine-tune3) (peptide),> 100
